# Data published in US10906915B2, “Substituted pyrazoloazepin-4-ones and their use as phosphodiesterase inhibitors” (LEO Pharma A/S, priority 2016, dated 2021).
# The chains behind the UniProt entries cited, without tags or fusion partners. Residues count along the entry.
# UniProt Q08499, 380-740 limits assumed: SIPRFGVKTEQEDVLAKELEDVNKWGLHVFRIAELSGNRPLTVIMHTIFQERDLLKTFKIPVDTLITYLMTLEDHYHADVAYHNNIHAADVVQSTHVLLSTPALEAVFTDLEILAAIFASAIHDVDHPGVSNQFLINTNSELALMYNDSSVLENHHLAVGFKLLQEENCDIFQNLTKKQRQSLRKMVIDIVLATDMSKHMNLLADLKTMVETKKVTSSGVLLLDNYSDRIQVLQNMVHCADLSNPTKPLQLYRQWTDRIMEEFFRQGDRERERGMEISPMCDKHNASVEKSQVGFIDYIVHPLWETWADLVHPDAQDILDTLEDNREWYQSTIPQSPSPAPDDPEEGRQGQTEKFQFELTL
# Molecular target: human PDE4D catalytic domain (UniProt no. Q08499) (Homo sapiens (Human), UniProt Q08499)
# Experiment: PDE4 assay (TR-FRET, FAM-cAMP cleavage)
# Conditions: read-out: PDE4 IC50 range
smiles,measurement,value
CCc1nn(CCOC(=O)c2ccccc2)c2c1C(=O)NCC1(CCOCC1)C2,IC50,< 100 nM
